The structures appear in SMILES notation.

What is called IC50 is the concentration that inhibits the measured activity by half. The low end stands for greater potency, the high end for weaker potency.

The target of the assay is T1, Calpain-2 catalytic subunit (Sus scrofa, UniProt P43367).
T1 sequence (P43367 whole entry): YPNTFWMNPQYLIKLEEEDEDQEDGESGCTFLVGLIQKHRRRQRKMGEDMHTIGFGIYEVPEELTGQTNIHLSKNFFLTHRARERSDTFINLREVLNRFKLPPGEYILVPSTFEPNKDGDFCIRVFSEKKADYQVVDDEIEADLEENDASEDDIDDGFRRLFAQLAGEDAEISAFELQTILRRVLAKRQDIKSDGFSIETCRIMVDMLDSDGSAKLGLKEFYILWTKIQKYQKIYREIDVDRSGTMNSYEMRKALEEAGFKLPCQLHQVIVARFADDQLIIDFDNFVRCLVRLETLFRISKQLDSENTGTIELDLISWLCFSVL
The experiment in a line: Inhibition of porcein kidney m calpain.

`CCCCNC(=O)C(=O)[C@H](CC(C)C)NC(=O)[C@@H](NS(=O)(=O)c1ccc(F)cc1)C(C)C` returned a half-inhibitory concentration (IC50) of 21 nM.

These data come from ChEMBL document CHEMBL1138043, “Exploration of orally available calpain inhibitors 2: peptidyl hemiacetal derivatives” (J Med Chem, 2006).
